Literature values in paper PMC10202811 (Nature Medicine, 2023).

How the values were obtained:
[1] = system: ALK-fusion-driven refractory or relapsed anaplastic large cell lymphoma; set-up: method as in PMID 28787259; conditions: cited from earlier work
[2] = system: refractory or relapsed ALK-mutant neuroblastoma; set-up: method as in PMID 33568345; conditions: children, 3/20; cited from earlier work

In the case of `C[C@@H](Oc1cc(-c2cnn(C3CCNCC3)c2)cnc1N)c1c(Cl)ccc(F)c1Cl` [crizotinib], the RR [1] is listed as 90% and the “RR (CR/PR)” value [2] is listed as 15%.
